Laboratory results from paper PMC4420714 (Peptides, 2015).
Several values for one entry are separate records, joined by “and”; a condition that tells them apart may be missing. Equal values may be shown once. Read-outs that look alike come from different tables or passages of the source.

The chains behind the UniProt entries cited, without tags or fusion partners. Residues count along the entry.
UniProt P32241, 31-457: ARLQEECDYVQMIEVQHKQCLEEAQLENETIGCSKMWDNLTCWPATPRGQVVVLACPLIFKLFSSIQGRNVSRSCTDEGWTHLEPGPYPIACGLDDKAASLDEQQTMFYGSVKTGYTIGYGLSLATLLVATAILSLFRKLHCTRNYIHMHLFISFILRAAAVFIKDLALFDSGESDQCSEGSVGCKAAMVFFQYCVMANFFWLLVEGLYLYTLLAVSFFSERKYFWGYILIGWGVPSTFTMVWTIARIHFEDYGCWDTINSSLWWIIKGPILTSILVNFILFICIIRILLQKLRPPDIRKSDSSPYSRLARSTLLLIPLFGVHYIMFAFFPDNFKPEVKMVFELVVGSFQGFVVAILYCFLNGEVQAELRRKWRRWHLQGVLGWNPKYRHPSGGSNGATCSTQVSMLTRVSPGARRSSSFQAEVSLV

How the values were obtained:
PAC1-R [1] = target: T1, PAC1-R (Homo sapiens, UniProt P41586); experiment: Binding of 125I-PACAP27 to PAC1-R stably transfected NIH 3T3 cells; details: for IC50: read-out: IC50 PAC1-R; for higher affinity (selectivity) for PAC1-R cells over VPAC1-R/PANC-1 cells: IC50 VPAC1-R/PANC-1 divided by IC50 PAC1-R; for lower affinity for PAC1-R cells than VPAC1-R/PANC-1 cells: VPAC1-R preferring; for decrease in affinity for PAC1-R cells compared to native PACAP38 (or PACAP27): ratio of binding IC50, analog vs native parent peptide
T1 sequence (P41586 21-468): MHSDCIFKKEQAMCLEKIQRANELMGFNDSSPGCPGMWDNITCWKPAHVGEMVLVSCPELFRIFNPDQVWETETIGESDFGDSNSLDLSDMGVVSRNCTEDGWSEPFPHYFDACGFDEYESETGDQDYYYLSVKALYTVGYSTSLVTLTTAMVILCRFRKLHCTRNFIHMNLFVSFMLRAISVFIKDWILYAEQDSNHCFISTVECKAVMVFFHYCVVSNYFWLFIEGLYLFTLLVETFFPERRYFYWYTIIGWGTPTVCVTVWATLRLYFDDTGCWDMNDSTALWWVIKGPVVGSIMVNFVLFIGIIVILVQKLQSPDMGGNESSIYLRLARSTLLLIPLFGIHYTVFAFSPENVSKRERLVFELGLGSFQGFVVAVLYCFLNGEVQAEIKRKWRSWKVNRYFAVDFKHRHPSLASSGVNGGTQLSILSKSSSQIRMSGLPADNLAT

VPAC2-R [2] = target: T2, VPAC2-R (Homo sapiens, UniProt P41587); experiment: [3H]cAMP generation in VPAC2-R/PANC-1 cells; format: cell-based; details: read-out: [3H]cAMP VPAC2-R/PANC-1 EC50
T2 sequence (P41587 24-438): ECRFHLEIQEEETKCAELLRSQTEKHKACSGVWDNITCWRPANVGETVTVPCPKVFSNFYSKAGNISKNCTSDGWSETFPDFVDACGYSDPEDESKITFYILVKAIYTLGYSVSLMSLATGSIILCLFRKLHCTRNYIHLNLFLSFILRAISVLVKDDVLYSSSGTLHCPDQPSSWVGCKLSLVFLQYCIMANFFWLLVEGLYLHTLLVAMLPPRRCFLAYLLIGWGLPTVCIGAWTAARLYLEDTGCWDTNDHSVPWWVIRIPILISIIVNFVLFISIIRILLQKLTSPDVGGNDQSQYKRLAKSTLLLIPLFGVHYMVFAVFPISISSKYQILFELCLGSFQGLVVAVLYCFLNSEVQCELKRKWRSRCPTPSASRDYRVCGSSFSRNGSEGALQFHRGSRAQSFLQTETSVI

PAC1-R [3] = target: T1, PAC1-R; experiment: [3H]cAMP generation in PAC1-R cells; format: cell-based; details: for EC50: read-out: [3H]cAMP PAC1-R EC50
VPAC1-R [4] = target: T3, VPAC1-R (Homo sapiens, UniProt P32241); experiment: [3H]cAMP generation in T47D cells; format: cell-based; details: T47D cells; for EC50: read-out: [3H]cAMP T47D EC50
VPAC1-R [5] = target: T3, VPAC1-R; experiment: [3H]cAMP generation in VPAC1-R/PANC-1 cells; format: cell-based; details: for EC50: read-out: [3H]cAMP VPAC1-R/PANC-1 EC50; for greater affinity than potency for stimulating cAMP generation, VPAC1-R/PANC-1 cells: EC50 cAMP over binding IC50
VPAC2-R [6] = target: T2, VPAC2-R; format: binding; details: read-out: IC50 VPAC2-R, Sup-T1; Sup-T1 cells, 75 pM 125I-Ro 25-1553, 37°C
VPAC1-R [7] = target: T3, VPAC1-R; experiment: Binding of 125I-VIP to VPAC1-R/PANC-1 cells; details: ratio of binding IC50, analog vs native parent peptide

PACAP27 [reference compound]
IC50 (PAC1-R [1]): 2.82 ± 0.17 nM | EC50 (VPAC2-R [2]): 1 ± 0.04 nM | EC50 (PAC1-R [3]): 0.03 nM | EC50 (VPAC1-R [4]): 0.79 ± 0.07 nM | EC50 (VPAC1-R [5]; VPAC1-R/PANC-1 cells): 0.2 ± 0.01 nM | IC50 (VPAC2-R [6]): 24.5 ± 1 nM

[Aib^2]PACAP38 [Peptide P15]
IC50 (PAC1-R [1]): 4.68 ± 0.29 nM | EC50 (VPAC2-R [2]; VPAC2-R/PANC-1 cells): 11.7 ± 0.7 nM | higher potency for PAC1-R cells compared to VPAC1-R/PANC-1 cells (PAC1-R [3]): 2-to-5 fold | higher potency for PAC1-R cells compared to VPAC2-R/PANC-1 cells (PAC1-R [3]): 12–140 fold | EC50 (PAC1-R [3]): 0.46 ± 0.02 nM | decrease in affinity for VPAC1-R/PANC-1 cells compared to native PACAP38 (or PACAP27, VIP) (VPAC1-R [7]): 2–10 fold | EC50 (VPAC1-R [4]): 16.6 ± 0.9 nM | IC50 (VPAC2-R [6]): 3.16 ± 0.15 nM

[Ala^16,17,D-Lys^38]PACAP38 [Peptide P23]
higher affinity (selectivity) for PAC1-R cells over VPAC1-R/PANC-1 cells (PAC1-R [1]; binding): minimal to no selectivity | higher affinity (selectivity) for PAC1-R cells over VPAC2-R/PANC-1 cells (PAC1-R [1]; IC50 VPAC2-R/PANC-1 divided by IC50 PAC1-R, binding): 2 fold | lower affinity for PAC1-R cells than VPAC1-R/PANC-1 cells (PAC1-R [1]; binding IC50 ratio): 6–10 fold | decrease in affinity for PAC1-R cells compared to native PACAP38 (or PACAP27) (PAC1-R [1]): 4–5 fold | EC50 (VPAC2-R [2]; VPAC2-R/PANC-1 cells): 5.37 ± 0.36 nM | higher potency for PAC1-R cells compared to VPAC1-R/PANC-1 cells (PAC1-R [3]; cAMP generation EC50 ratio): 6–15 fold | higher potency for PAC1-R cells compared to VPAC2-R/PANC-1 cells (PAC1-R [3]; cAMP generation EC50 ratio): 7-to-15 fold | EC50 (PAC1-R [3]; PAC1-R cells): 0.35 ± 0.02 nM | EC50 (VPAC1-R [4]): 12.9 ± 1 nM | greater affinity than potency for stimulating cAMP generation, VPAC1-R/PANC-1 cells (VPAC1-R [5]): 1.2–65.2 fold | EC50 (VPAC1-R [5]; VPAC1-R/PANC-1 cells): 3.8 ± 0.33 nM | IC50 (VPAC2-R [6]): 5.62 ± 0.28 nM

[D-Ser^2]PACAP27 [Peptide P4]
IC50 (PAC1-R [1]): 55 to 69 nM and 54.9 nM | EC50 (VPAC2-R [2]): 7.41 ± 0.32 nM | EC50 (PAC1-R [3]): 0.47 ± 0.03 nM | EC50 (VPAC1-R [4]): 3.39 ± 0.29 nM | EC50 (VPAC1-R [5]; VPAC1-R/PANC-1 cells): 1.58 ± 0.19 nM | IC50 (VPAC2-R [6]): 72.4 ± 6.5 nM

[Iac^1,Ala^16,17,D-Lys^38]PACAP38 [Peptide P29]
higher potency for PAC1-R cells compared to VPAC1-R/PANC-1 cells (PAC1-R [3]; cAMP generation EC50 ratio): 16–50 fold | higher potency for PAC1-R cells compared to VPAC2-R/PANC-1 cells (PAC1-R [3]; cAMP generation EC50 ratio): 22–55 fold | decrease in affinity for VPAC1-R/PANC-1 cells compared to native PACAP38 (or PACAP27, VIP) (VPAC1-R [7]): 3–20 fold

[Iac^1]PACAP38 [Peptide P44]
higher affinity (selectivity) for PAC1-R cells over VPAC1-R/PANC-1 cells (PAC1-R [1]; binding): minimal to no selectivity | decrease in affinity for PAC1-R cells compared to native PACAP38 (or PACAP27) (PAC1-R [1]): 5–10 fold | greater affinity than potency, PAC1-R cells (PAC1-R [3]; EC50 cAMP over binding IC50): 1.2- to 64 fold | decrease in affinity for VPAC1-R/PANC-1 cells compared to native PACAP38 (or PACAP27, VIP) (VPAC1-R [7]): 2–10 fold | [3H]cAMP VPAC1-R/PANC-1 % max (agonist class) (VPAC1-R [5]; VPAC1-R/PANC-1 cells, relative to PACAP38, up to 1 µM): Ag (1 µM, 85)

[Lys^34]PACAP38 [Peptide P24]
decrease in affinity for PAC1-R cells compared to native PACAP38 (or PACAP27) (PAC1-R [1]): 5–10 fold | EC50 (VPAC2-R [2]; VPAC2-R/PANC-1 cells): 2.57 ± 0.17 nM | higher potency for PAC1-R cells compared to VPAC1-R/PANC-1 cells (PAC1-R [3]; cAMP generation EC50 ratio): 6–15 fold | higher potency for PAC1-R cells compared to VPAC2-R/PANC-1 cells (PAC1-R [3]; cAMP generation EC50 ratio): 7-to-15 fold | EC50 (PAC1-R [3]; PAC1-R cells): 0.29 ± 0.01 nM | [3H]cAMP T47D % max of partial agonist (VPAC1-R [4]; partial agonist maximum): pAg (85) % max | [3H]cAMP T47D % max (agonist class) (VPAC1-R [4]; relative to PACAP38, up to 1 µM): pAg (85) | EC50 (VPAC1-R [4]): 5.5 ± 0.35 nM | greater affinity than potency for stimulating cAMP generation, VPAC1-R/PANC-1 cells (VPAC1-R [5]): 1.2–65.2 fold | EC50 (VPAC1-R [5]; VPAC1-R/PANC-1 cells): 2.88 ± 0.16 nM | IC50 (VPAC2-R [6]): 4.2 ± 0.16 nM

[Me-Asp^3,Aib^16,28,Lys^34,D-Lys^38]PACAP38 [Peptide P33]
decrease in affinity for PAC1-R cells compared to native PACAP38 (or PACAP27) (PAC1-R [1]): 100–300 fold | higher potency for PAC1-R cells compared to VPAC1-R/PANC-1 cells (PAC1-R [3]; cAMP generation EC50 ratio): 16–50 fold and 15-to-666 fold | higher potency for PAC1-R cells compared to VPAC2-R/PANC-1 cells (PAC1-R [3]; cAMP generation EC50 ratio): 22–55 fold | decrease in affinity for VPAC1-R/PANC-1 cells compared to native PACAP38 (or PACAP27, VIP) (VPAC1-R [7]): 30-to-100 fold

[Me-Lys^15]PACAP27 [Peptide P2]
lower affinity for PAC1-R cells than VPAC1-R/PANC-1 cells (PAC1-R [1]; binding IC50 ratio): 6–10 fold | lower affinity for PAC1-R cells than VPAC2-R/PANC-1 cells (PAC1-R [1]; binding IC50 ratio, VPAC2-R preferring): 2–9 fold | decrease in affinity for PAC1-R cells compared to native PACAP38 (or PACAP27) (PAC1-R [1]): > 1,000 fold | higher potency for PAC1-R cells compared to VPAC1-R/PANC-1 cells (PAC1-R [3]; cAMP generation EC50 ratio): 2-to-5 fold | higher potency for PAC1-R cells compared to VPAC2-R/PANC-1 cells (PAC1-R [3]; cAMP generation EC50 ratio): 12–140 fold | greater affinity than potency for stimulating cAMP generation, VPAC1-R/PANC-1 cells (VPAC1-R [5]): 1.2–65.2 fold
